The record followed here is patent US8697372B2, “Method for determining the binding of a given compound to a membrane receptor” (CIS Bio International, priority 2009, dated 2014).

By UniProt entry, the sequences of proteins in these tests, tags left out.
UniProt P14416, whole entry, looked up: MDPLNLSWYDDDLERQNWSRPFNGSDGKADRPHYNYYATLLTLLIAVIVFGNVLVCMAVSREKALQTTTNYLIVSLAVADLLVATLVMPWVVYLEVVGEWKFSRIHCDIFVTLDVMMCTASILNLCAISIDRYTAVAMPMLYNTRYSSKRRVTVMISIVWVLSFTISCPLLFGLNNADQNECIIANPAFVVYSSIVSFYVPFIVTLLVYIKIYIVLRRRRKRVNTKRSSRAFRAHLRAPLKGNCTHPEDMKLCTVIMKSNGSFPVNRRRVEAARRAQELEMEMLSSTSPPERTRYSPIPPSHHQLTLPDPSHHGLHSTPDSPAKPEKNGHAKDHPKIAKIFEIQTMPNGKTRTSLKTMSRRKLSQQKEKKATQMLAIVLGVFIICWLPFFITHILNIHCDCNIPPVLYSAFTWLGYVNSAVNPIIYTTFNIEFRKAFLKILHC

The target in this experiment is Dopamine D2 receptor implicated in the heterodimer with Delta Opioid (Homo sapiens, UniProt P14416). Briefly: Competitive test against the red antagonist of the dopamine D2 receptor on the heterodimer, Delta Opioid receptor labeled with SNAP-Lumi4Tb. The note with it: 3 nM red antagonist of the dopamine D2 receptor, HEK293T cells, FIG. 11.

Consider `O=C(CCCN1CCC2(CC1)C(=O)NCN2c1ccccc1)c1ccc(F)cc1`, for which the “Competition with the fluorescent reference ligand and binding to the heterodimers” value was “compete with the fluorescent reference ligand and bind to the heterodimers”.
